## Antibody variant affinities, Ab-14 light chain, assay B

Source: Li et al. 2023 (doi:10.1038/s41467-023-39022-2), MIT Lincoln Laboratory and A-Alpha Bio; data file from the FLAb repository.

Target: peptide PDVDLGDISGINAS, taken from heptad repeat 2 (HR2) of SARS-CoV-2 spike.

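The parent was found by panning a naive human phage display library on the peptide. This is the validation round: designs drawn from the data on random variants, tested in the same kind of assay. Group labels follow the data file (Ctrl: baseline library sampled from a position-specific scoring matrix, with some repeated check sequences; En: ensemble of fine-tuned language models; GP: Gaussian process model; HC: hill climbing; Gen: genetic algorithm; Gibbs: Gibbs sampling; a sequence that several methods proposed may carry one label only). In AlphaSeq, yeast of one mating type display the scFv and yeast of the other type display the target. Binding brings cells together so that they mate, and sequencing counts the barcode pairs among the diploids. A regression on co-assayed BCL2-family reference pairs converts the normalised counts of each replicate to an apparent Kd. Mating was done six times.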

Ab-14 is the parent antibody, in scFv form: VH, then a 15-residue (Gly4Ser)3 linker, then VL. The heavy chain is unchanged in all variants.
VH: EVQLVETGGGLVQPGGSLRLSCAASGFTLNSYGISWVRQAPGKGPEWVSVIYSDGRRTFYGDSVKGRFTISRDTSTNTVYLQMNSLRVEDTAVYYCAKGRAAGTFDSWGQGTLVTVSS
VL: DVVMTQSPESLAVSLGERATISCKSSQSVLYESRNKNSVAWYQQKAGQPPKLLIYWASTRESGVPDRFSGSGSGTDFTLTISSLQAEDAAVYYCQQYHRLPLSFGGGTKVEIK

Variants are written as CDR1, CDR2 and CDR3 of the light chain (limits as in the source). Parent: KSSQSVLYESRNKNSVA, WASTRES, QQYHRLPLS.
This list holds designs with more than six substitutions.
The Kd shown is the geometric mean over detected replicates; a lower Kd is a better binder.
"nd" marks a missing value. The strain was present, yet no cells mated with the target were sequenced in any replicate, which points to weak or no binding.
Entries are sorted by rising average, undetected variants last.
The authors' rule: three or more of the six replicates give a measured affinity, fewer mean a poor binder.
Nonspecific signal, from three strains lacking the peptide, appeared in 4% of pairings of all light chain designs, centred on 430 nM (5% of these signals below 38 nM); values are not corrected for it.
The range of this assay differs from that of the first round, and the authors advise against merging the two.

| CDR-L1 | CDR-L2 | CDR-L3 | group | apparent Kd | detected |
|---|---|---|---|---|---|
| KVQQSWEYESRNKNNVA | MGSTRED | QQYHRLPLS | GP_Gibbs | 300 pM | 6/6 |
| MVTQMAMSGMTNKRSVA | NAETREY | QQYNRLPLI | En_Gen | 340 pM | 6/6 |
| ALSQSQGGESRNPNSVA | HASTREQ | QQYHRLPLS | GP_Gibbs | 410 pM | 6/6 |
| TLSDLMYMESRNKNSVA | DLVKRES | QQYHRLPLS | En_HC | 520 pM | 6/6 |
| QLDWYNTYATASASNIA | DKAQRAN | QQYMRLPLM | En_Gibbs | 530 pM | 6/6 |
| KCEQSWGYESRVKNNVA | NASQRES | QQYHRLPLS | GP_Gibbs | 920 pM | 6/6 |
| TISQSAEQESHNKNSVA | DLSVRGS | QQYHRLPLS | En_HC | 1.1 nM | 6/6 |
| HISDLIMVASRNKNSVA | DESMRPD | QQYHRLPLS | En_HC | 1.1 nM | 6/6 |
| KLQQWWLYEGRNKNSVA | SASQRSD | QQYHRLPLS | GP_Gibbs | 1.2 nM | 6/6 |
| KLSPEEQYESRQKNSVA | NASLRES | QQYHRLPLS | GP_Gibbs | 1.2 nM | 6/6 |
| KAQQSWPYESRNKWSVA | NASTREK | QQYHRLPLS | GP_Gibbs | 1.5 nM | 6/6 |
| NIVGRVEDKQTENNAIA | DAHCRAG | QQYSRLPLS | En_Gibbs | 1.6 nM | 6/6 |
| HQSQSVGQEERQKNSVA | AASTREQ | QQYHRLPLS | GP_Gibbs | 1.6 nM | 6/6 |
| QLTENDRGHQAGGGSIA | DATETME | QQYMHLPLY | En_Gibbs | 1.7 nM | 6/6 |
| KIGGVTNGISRSKNNVA | EQSTRED | QQYDRLPLS | En_HC | 1.8 nM | 6/6 |
| KLPLATMQESVSKNSVA | ELSTRGS | QQYHRLPLS | En_HC | 1.8 nM | 6/6 |
| RLTEHTSMRAYADAAVA | DASTRND | QQYHRLPLE | En_Gibbs | 1.8 nM | 6/6 |
| KISQMVRVGQTHSNSIA | EEATRAK | QQYHRLPLS | En_Gen | 2.0 nM | 6/6 |
| QLEVFNLQAGSTQAAIA | DASHSTP | QQYARLPLM | En_Gibbs | 2.0 nM | 6/6 |
| KWDQSVDGESRNKNSVA | QASQREQ | QQYHRLPLS | GP_Gibbs | 2.1 nM | 6/6 |
| KQSWSEDYGSRNKNSVA | DASQRES | QDYHRLPLS | GP_Gibbs | 2.1 nM | 6/6 |
| KISMLQRYESQNKDSIA | EMSRREN | QQYHRLPLS | En_HC | 2.2 nM | 6/6 |
| QIYQAMHNLMQKKNNVA | DVNERGA | QQYYRLPLS | En_Gen | 2.2 nM | 6/6 |
| KVMQSNWYESRWPNSVA | NASQRES | QQYHRLPLS | GP_Gibbs | 2.9 nM | 6/6 |
| HLGIQTQGEMVSTQAVA | QESTRAK | QQYFRLPLI | En_Gibbs | 2.9 nM | 6/6 |
| HLGGIMTWESKAKNSVA | QSNTRAE | QQYHRLPLS | En_HC | 3.1 nM | 6/6 |
| KIGMTLNTLMHTKNNVA | DLVTRED | QQYHRLPLS | En_Gen | 3.7 nM | 6/6 |
| TISQMTSLFSQTINNVA | EVSTREP | QQYDRLPLV | En_Gen | 4.2 nM | 6/6 |
| MISQISSMGQFAKNSVA | QASQRNA | QQYDRLPLI | En_Gen | 4.4 nM | 6/6 |
| MITYAETQLQRIDSNVA | AGSARCR | QQYYRLPLA | En_Gibbs | 5.1 nM | 6/6 |
| KLSQQWLYESRNKNSVA | NASLRLS | QCYHRLPLS | GP_Gibbs | 5.1 nM | 6/6 |
| TLMMDPTEQRDSKHAIA | DNNQRDR | QQYHRLPLS | En_Gibbs | 5.3 nM | 6/6 |
| KFANQLVYMNQGQNAIA | DVTNKSA | QQYLRLPLM | En_Gibbs | 5.7 nM | 6/6 |
| IITQSVMQESRNKSNVA | NTSERES | QQYNRLPLI | En_HC | 6.9 nM | 6/6 |
| QIFFDLFEQGKRSQPIA | GGSMREV | QQYARLPLV | En_Gibbs | 7.0 nM | 6/6 |
| HLSLRLSYGNMLQNAVA | GVQARMT | QQYARLPLL | En_Gibbs | 7.5 nM | 6/6 |
| KLSDPQELQYNKGQSVA | EASEVCA | QQFYRLPLV | En_Gibbs | 8.3 nM | 6/6 |
| KLTMSYRFLTEEKNSIA | ELVTRMS | QQYHRLPLS | En_HC | 9.5 nM | 6/6 |
| MISQLYNMGSFAINSVA | QASQRNE | QQYDRLPLM | En_Gen | 10 nM | 6/6 |
| MLSQLMAYGSRYANSVA | QASTRED | QQYHRLPLS | En_HC | 11 nM | 6/6 |
| RISYEQFGNTYSVNNVA | QASVRAP | QMYQRLPLV | En_Gibbs | 11 nM | 6/6 |
| TISQLHNMGTFAINSVA | QAEIRNE | QQYDRLPLI | En_Gen | 11 nM | 6/6 |
| KLDQWVEMESRWKNSVA | SASQRFS | QQYHRLPLS | GP_Gibbs | 12 nM | 6/6 |
| AISPGEMAENQNINAVA | DRGAMIW | QQYARLPLS | En_Gibbs | 12 nM | 2/6 |
| TLHANIQYGGIMWSSIA | GNVQRAN | QQYARLPLS | En_Gibbs | 14 nM | 6/6 |
| MISQLYNMGQFAINSVA | QATLRNE | QQYDRLPLI | En_Gen | 16 nM | 6/6 |
| TIGAQLMYGTRNRSNVA | EVSQRLN | QQYDRLPLF | En_Gen | 24 nM | 6/6 |
| TISGLILMPSRNKNSVA | NTSTRYS | QQYHRLPLS | En_HC | 25 nM | 6/6 |
| HIERSTKGDAYFQYSIA | QGDIREK | QQYAQLPLT | En_Gibbs | 32 nM | 6/6 |
| HISESVFAQSKMKNSVA | ENSTRES | QQYDRLPLS | En_HC | 33 nM | 6/6 |
| KISMMSTIESIMHNSVA | QTSTREN | QQYDRLPLS | En_HC | 39 nM | 6/6 |
| MIGEMLMQGAYKRNSVA | QANIRAQ | QHYNRLPLE | En_Gen | 43 nM | 6/6 |
| KVSEFMRGLTQVKDSIA | DNVTRNN | QQYDRLPLS | En_Gen | 45 nM | 6/6 |
| MISQMYNMGQFAINSVA | QASERNE | QQYDRLPLM | En_Gen | 45 nM | 4/6 |
| HTQHLGFGDYAWANSIA | ERSQVCE | QQYFRLPLI | En_Gibbs | 50 nM | 5/6 |
| KLQGSHLYESRNKNSVA | HASQRLS | QCYHRLPLS | GP_Gibbs | 64 nM | 5/6 |
| KLDLLNGEMDKWGDNIA | EASTAGM | QHYWRLPLS | En_Gibbs | 73 nM | 3/6 |
| MLYGAAMGLSRKENSVA | DNSTRYS | QQYDRLPLS | En_Gen | 89 nM | 2/6 |
| MVNGIMDHLSKQTNNVA | ETETRNS | QQYDRLPLS | En_Gen | 110 nM | 4/6 |
| MISDTGLHDSRMYNSVA | NNSTREA | QQYHRLPLS | En_HC | 160 nM | 6/6 |
| KLAQVTHSEHKNKNSIA | EMVTREK | QQYDRLPLS | En_HC | 160 nM | 6/6 |
| MISQLYNMGSFAINSVA | QAELRND | QQYDRLPLT | En_Gen | 180 nM | 6/6 |
| IVSQLMLWGLHAKNSIA | EAAMRLN | QQYDRLPLF | En_Gen | nd | 0/6 |
| NLSIEMSHYYENRYSIA | DMTVREY | QHYSRIPLA | En_Gibbs | nd | 0/6 |
| QLLMATMTETYNRNSVA | NAETRED | QSYHRLPLS | En_HC | nd | 0/6 |
| KSADSVLYEHRNKNSVA | WGMQTEQ | QCYHRIPLS | Ctrl | nd | 0/6 |